The values below come from patent US20070213394A1 (priority 2004, published 2007).

Amino acid sequences for entries named in this document (tags omitted). A change or cut given only in a name is not applied to a line headed by its entry.
UniProt P41145: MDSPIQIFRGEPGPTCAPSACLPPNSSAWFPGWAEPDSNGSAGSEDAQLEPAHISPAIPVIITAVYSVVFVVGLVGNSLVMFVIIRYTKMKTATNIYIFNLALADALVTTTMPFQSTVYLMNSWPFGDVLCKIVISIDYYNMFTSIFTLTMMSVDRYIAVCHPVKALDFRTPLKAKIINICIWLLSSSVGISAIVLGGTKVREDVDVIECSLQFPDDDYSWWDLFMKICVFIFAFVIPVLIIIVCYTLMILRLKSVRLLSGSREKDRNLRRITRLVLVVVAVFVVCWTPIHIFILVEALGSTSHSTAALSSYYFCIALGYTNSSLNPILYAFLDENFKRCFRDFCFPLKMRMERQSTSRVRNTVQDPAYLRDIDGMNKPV

As usually defined, the Ki is the equilibrium dissociation constant of an inhibitor or competing ligand from its target. One may read the EC50 as the concentration giving half of the maximal effect. A higher EC50 goes with a need for much substance.

The target in test [1] is T1, human kappa opioid receptor (Homo sapiens, UniProt P41145). As to conditions: Table 1.
Test [2] deals with T1, human kappa opioid receptor. As to the kind of experiment: [35S]GTPγS binding assay, membranes of CHO-hKOR cells. It is filed as biochemical. As to conditions: Table 1, N.A. is No Affinity; for Efficacy: Percent of the maximal effect of U50,488H; for EC50: human kappa opioid receptor.

For `COCO[C@H]1C[C@@H](C(=O)OC)[C@]2(C)CC[C@@H]3C(=O)O[C@H](c4ccoc4)C[C@]3(C)C2C1=O` (stereo partly drawn), the Ki in test [1] was 30 nM. In test [2], this molecule showed an Efficacy of 100% and an EC50 of 92 nM.

As for `COCO[C@H]1C[C@@H](C(=O)OC)[C@]2(C)CC[C@H]3C(=O)O[C@H](c4ccoc4)C[C@]3(C)C2C1=O` (stereo partly drawn), the Ki in test [1] stood at 0.4 nM. Moreover, in test [2], the Efficacy is 98% and the EC50 is 0.6 nM.
